Assay results taken from patent publication US7320863B2 (Albert Einstein College of Medicine of Yeshiva University, priority 1996, dated 2008).

Target: T1, rat sodium/iodide symporter (Rattus norvegicus, UniProt Q63008)
T1 sequence (Q63008 1-618): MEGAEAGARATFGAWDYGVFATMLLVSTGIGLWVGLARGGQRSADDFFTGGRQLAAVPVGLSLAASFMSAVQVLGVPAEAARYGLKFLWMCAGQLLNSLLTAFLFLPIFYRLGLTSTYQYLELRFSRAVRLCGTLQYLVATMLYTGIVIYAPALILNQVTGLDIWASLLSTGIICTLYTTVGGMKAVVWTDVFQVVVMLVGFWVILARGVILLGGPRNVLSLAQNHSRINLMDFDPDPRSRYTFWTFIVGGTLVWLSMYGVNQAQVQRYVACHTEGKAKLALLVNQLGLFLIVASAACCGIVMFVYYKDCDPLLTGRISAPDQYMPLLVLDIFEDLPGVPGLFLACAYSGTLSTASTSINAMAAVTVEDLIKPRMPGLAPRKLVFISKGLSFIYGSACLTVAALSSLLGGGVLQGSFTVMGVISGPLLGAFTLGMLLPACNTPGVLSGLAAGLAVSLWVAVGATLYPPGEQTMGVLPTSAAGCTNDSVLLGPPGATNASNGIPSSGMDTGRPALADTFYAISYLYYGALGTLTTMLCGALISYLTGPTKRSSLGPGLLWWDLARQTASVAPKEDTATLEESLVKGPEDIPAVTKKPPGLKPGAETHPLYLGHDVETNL
Conditions: approximately 90 min saturation point, 50 μM iodide in transport solution, 60 h after injection

## I [iodide]
  iodide accumulation at saturation point: ~800 pmol of iodide/oocyte
